pIC50: −log10 of the molar value. Like-named read-outs stand apart in the source and are kept apart here.
How the values were obtained:
[1] = system: OPM-2 human multiple myeloma cell line; assay: Cell Viability Assay (OPM-2 10 FBS); format: cell-based
[2] = target: Mcl-1/Bim interaction, recombinant human Mcl-1 (171-327) (Homo sapiens, UniProt Q07820); assay: Cell free Mcl-1: Bim Affinity Assay (Mcl-1 HTRF); format: binding; details: read-out: Mcl-1 HTRF
[3] = read-out: OPM-2 10% FBS, OPM-2 cells, 16 h, CellTiter-Glo
[4] = cell free Mcl-1:Bim TR-FRET, recombinant human Mcl-1 (171-327)
[5] = read-out: OPM-2 10% FBS, OPM-2 cells, 16 h incubation, CellTiter-Glo
[6] = TR-FRET, 0.1 nM Mcl-1 (171-327), 0.05 nM biotin-Bim (51-76)

By UniProt entry, the sequences of proteins in these tests, tags left out. Residues count along the entry.
UniProt Q07820, 171-327 limits assumed: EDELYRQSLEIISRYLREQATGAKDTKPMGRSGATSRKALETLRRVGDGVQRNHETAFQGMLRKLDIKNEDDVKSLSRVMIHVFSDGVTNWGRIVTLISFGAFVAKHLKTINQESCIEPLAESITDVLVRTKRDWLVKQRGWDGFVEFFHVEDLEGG

SMILES	pIC50 [1, 5]	pIC50 [2, 6]	pIC50 [1, 3]	pIC50 [2, 4]
CC1/C=C/C(O)[C@@H]2CC[C@H]2CN2C[C@@]3(CCCc4cc(Cl)ccc43)COc3ccc(cc32)C(=O)NS(=O)(=O)CC1(C)C (single isomer, unassigned)	–	–	6.18	9.01
CC1/C=C/[C@H](O)[C@@H]2CC[C@H]2CN2C[C@@]3(CCCc4cc(Cl)ccc43)COc3ccc(cc32)C(=O)NS(=O)(=O)C(C(C)C)C1 (single isomer, unassigned)	–	–	5.81	9.14
CC1C/C=C/[C@H](O)[C@@H]2CC[C@H]2CN2C[C@@]3(CCCc4cc(Cl)ccc43)COc3ccc(cc32)C(=O)NS(=O)(=O)C1Cc1ccccc1 (single isomer, unassigned)	–	–	5.18	7.86
CC1C/C=C/[C@H](O)[C@@H]2CC[C@H]2CN2C[C@@]3(CCCc4cc(Cl)ccc43)COc3ccc(cc32)C(=O)NS(=O)(=O)C1Cc1ccsc1 (single isomer, unassigned)	–	–	5.32	7.54
CCC1C(OC)C/C=C/[C@H](O)[C@@H]2CC[C@H]2CN2C[C@@]3(CCCc4cc(Cl)ccc43)COc3ccc(cc32)C(=O)NS1(=O)=O (single isomer, unassigned)	–	9.70	6.91	–
CCC1C(OC)C/C=C/[C@H](OC)[C@@H]2CC[C@H]2CN2C[C@@]3(CCCc4cc(Cl)ccc43)COc3ccc(cc32)C(=O)NS1(=O)=O (single isomer, unassigned)	–	9.28	6.58	–
COC1C/C=C/[C@H](O)[C@@H]2CC[C@H]2CN2C[C@@]3(CCCc4cc(Cl)ccc43)COc3ccc(cc32)C(=O)NS(=O)(=O)C1CC(C)C (single isomer, unassigned)	–	–	5.37	7.95
COC1C/C=C/[C@H](O)[C@@H]2CC[C@H]2CN2C[C@@]3(CCCc4cc(Cl)ccc43)COc3ccc(cc32)C(=O)NS(=O)(=O)C1CC1CCCO1 (single isomer, unassigned)	–	–	6.97	9.77
COCCC1CC(C)/C=C/[C@H](OC)[C@@H]2CC[C@H]2CN2C[C@@]3(CCCc4cc(Cl)ccc43)COc3ccc(cc32)C(=O)NS1(=O)=O (single isomer, unassigned)	–	–	4.82	7.93
COC[C@@H]1CC(C)CC[C@H](O)[C@@H]2CC[C@H]2CN2C[C@@]3(CCCc4cc(Cl)ccc43)COc3ccc(cc32)C(=O)NS1(=O)=O (single isomer, unassigned)	5.66	8.93	–	–
O=C1NS(=O)(=O)CC(c2ccccc2)C/C=C/[C@H](O)[C@@H]2CC[C@H]2CN2C[C@@]3(CCCc4cc(Cl)ccc43)COc3ccc1cc32 (single isomer, unassigned)	–	–	5.69	8.29
O=C1NS(=O)(=O)CC(c2ccccc2)CCC[C@H](O)[C@@H]2CC[C@H]2CN2C[C@@]3(CCCc4cc(Cl)ccc43)COc3ccc1cc32 (single isomer, unassigned)	–	–	4.64	7.55

Continued, in another order:

pIC50 [1, 5]	pIC50 [2, 6]	SMILES	pIC50 [1, 3]	pIC50 [2, 4]
5.82	8.78	CC1/C=C/[C@@H](O)[C@@H]2CC[C@H]2CN2C[C@@]3(CCCc4cc(Cl)ccc43)COc3ccc(cc32)C(=O)NS(=O)(=O)[C@H](C)[C@H]1C (single isomer, unassigned)	–	–
5.28	8.34	CCC1C(C)C(C)/C=C/[C@H](O)[C@@H]2CC[C@H]2CN2C[C@@]3(CCCc4cc(Cl)ccc43)COc3ccc(cc32)C(=O)NS1(=O)=O (single isomer, unassigned)	–	–
6.80	9.44	COC1/C=C/C(C)C(C)CS(=O)(=O)NC(=O)c2ccc3c(c2)N(C[C@@H]2CC[C@@H]12)C[C@@]1(CCCc2cc(Cl)ccc21)CO3 (single isomer, unassigned)	–	–
–	9.27	COCC1[C@@H](C)CC=C[C@H](O)[C@@H]2CC[C@H]2CN2C[C@@]3(CCCc4cc(Cl)ccc43)COc3ccc(cc32)C(=O)NS1(=O)=O (single isomer, unassigned)	6.15	–
4.61	7.85	O=C1NS(=O)(=O)C2COCC2C/C=C/[C@@H](O)[C@@H]2CC[C@H]2CN2C[C@@]3(CCCc4cc(Cl)ccc43)COc3ccc1cc32 (single isomer, unassigned)	–	–

— US12091425B2 (AMGEN INC., priority 2016, dated 2024)
